Among the data in PubChem BioAssay AID1359 (The Scripps Research Institute Molecular Screening Center, 2008) are activation values, retold here.

Amino acid sequences for entries named in this document (tags omitted).
UniProt P49146, whole entry, looked up: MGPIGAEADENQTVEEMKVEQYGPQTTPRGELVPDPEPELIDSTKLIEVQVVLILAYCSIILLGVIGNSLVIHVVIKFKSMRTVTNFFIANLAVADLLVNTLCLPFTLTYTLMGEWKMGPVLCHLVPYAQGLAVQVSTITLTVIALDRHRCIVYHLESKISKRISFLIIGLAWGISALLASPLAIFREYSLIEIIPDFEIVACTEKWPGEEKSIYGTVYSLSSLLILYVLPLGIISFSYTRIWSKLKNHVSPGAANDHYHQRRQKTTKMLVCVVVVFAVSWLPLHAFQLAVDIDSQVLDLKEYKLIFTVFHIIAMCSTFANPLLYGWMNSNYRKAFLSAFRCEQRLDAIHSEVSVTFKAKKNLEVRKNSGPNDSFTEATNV

“And” between values parts separate entries of the source, which are not always exact repeats. Equal values may be shown once. The list shows a part of the results, in another mix than the full data. The source made the active and inactive calls. Cut-off read from the data, not from the text of the source: active = activation above about 27%; inactive = the rest.

The target in this experiment is Neuropeptide Y receptor type 2 (Homo sapiens) (UniProt P49146). Description: human Y2 receptor positive modulation or activation – cell-based, primary screen (AID 1359).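 Note: cells stimulated with NPY near EC25 plus isoproterenol at EC100; 0% = vehicle plus submaximal agonist and 100% = vehicle plus saturating agonist.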 The following applies: cells expressing NPY-Y2, potentiator/agonist read-out; at 3.6 µM; stronger effect = higher value.
With `Cc1cccc(OCC(=O)OC2CN3CCC2CC3)c1` (centres undefined), the activation is inactive: -17.7%.
Take `O=[As](O)(c1cccc(O)c1)c1cccc(O)c1`: the activation is inactive: 2.75%.
To `O=C(OC1CN2CCC1CC2)c1ccc(Cl)cc1` (centres undefined) belongs inactive: -0.34%; to `O=[As](O)(O)c1cccnc1`, inactive: 5.63%; to `COc1cc(C(=O)NCC2(N3CCOCC3)CCCCC2)cc(Cl)c1OC(C)C`, inactive: 11.6%.
Under `CCOP(=O)(Nc1cccc2ccccc12)OCC` stands inactive: -0.04%; under `COc1cc(C2NCCC3(OCCO3)C2(C)C)cc(OC)c1OC` (centres undefined), inactive: 8.44%; under `Cc1ccc(NCCc2c([N+](=O)[O-])cc([N+](=O)[O-])cc2[N+](=O)[O-])cc1`, inactive: 22.8%.
To `Nc1cccc2c([As](=O)(O)O)cccc12` belongs inactive: 5.27%; to `CCCOP(=S)(Nc1nc(N)cc(=O)[nH]1)OCCC`, inactive: -13.4%; to `O=C(O)COc1ccc([As](=O)(O)O)cc1[N+](=O)[O-]`, inactive: -7.23%.
With `Nc1ccccc1[As](=O)(O)c1ccccc1`, the activation was inactive: -4.19%.
To `O=P(Nc1nccs1)(Oc1ccccc1)Oc1ccccc1` belongs inactive: -4.45%.
Under `O=P(Nc1nccs1)(c1ccccc1)c1nc2ccccc2s1` (centres undefined) stands inactive: -9.47%; under `CCOP1(=S)c2c(C)nn(CCC#N)c2N=C(c2ccccc2F)N1C` (centres undefined), inactive: 0.21%; under `CS(=O)(=O)c1cc([N+](=O)[O-])c2no[n+]([O-])c2c1`, inactive: -12.8%.
To `CCOP1(=S)c2c(C)nn(CCC#N)c2N=C(c2ccc(F)cc2)N1C` (centres undefined) belongs inactive: 8.29%.
With `O=[N+]([O-])c1ccc2c(c1)nnn2O`, the activation is inactive: 4.57%.
As to `CN(C)C1(CNC(=O)c2ccc(S(C)(=O)=O)cc2)CCCCC1`, the activation is inactive: -11.6%.
To `O=C(/C=C/c1ccccc1)OC1CN2CCC1CC2` (centres undefined) belongs inactive: -25.6%.
To `CC1CCC(C(C)C)C(OP(=O)(Nc2ccccn2)c2ccccc2)C1` (centres undefined) belongs inactive: 7.15%.
Under `Cc1nn(-c2ccccc2)c2c1P(=O)(N1CCOCC1)N(C)C(c1ccccc1)=N2` (centres undefined) stands inactive: -5.5%; under `Nc1cccc([As](=O)(O)c2ccccc2)c1`, inactive: 2.44%; under `Cc1ccc(OCC(=O)OC2CN3CCC2CC3)cc1` (centres undefined), inactive: 9.35%.
As for `O=[As](O)(c1cccs1)c1cccs1`, the activation was inactive: 4.67%.
To `O=P1(Nc2ccc(Br)cn2)COc2ccccc2OC1` belongs inactive: 10.6%; to `O=P1(Nc2ncccn2)COc2ccccc2OC1`, inactive: -3.81%; to `CC(C)(C)C(=O)NC(Sc1ncccn1)C(Cl)(Cl)Cl` (centres undefined), inactive: 2.9%.
Turning to `Clc1n[nH]nc1-c1nn[nH][15n]1`, the activation was inactive: 1.4%.
To `O=P1(Nc2ccccn2)COc2ccccc2OC1` belongs inactive: 5.3%; to `CCOP(=O)(Nc1ccc(C)cn1)OCC`, inactive: -10.7%; to `CN(C(=O)Cc1ccc(Cl)c(Cl)c1)[C@@H]1CCCC[C@H]1N1CCCC1`, inactive: 3.26%.
Take `CC(C)/C=N\N=C(\N)N[N+](=O)[O-]`: the activation is inactive: -5.39%.
To `CC1(CBr)Cn2c(nc3ccccc3c2=O)S1` (centres undefined) belongs inactive: -16.1%; to `O=[As](O)(c1ccccc1Br)c1ccccc1Br`, inactive: 4.37%.
To `O=C(COc1ccccc1)OC1CN2CCC1CC2` (centres undefined) belongs inactive: -5.23%.
Under `COP1(=S)c2c(C)nn(CCC#N)c2N=C(c2ccc(F)cc2)N1C` (centres undefined) stands inactive: -1.16%; under `CCC(C)N(CC(C)C)C(=S)SC(NC(C)=O)C(Cl)(Cl)Cl` (centres undefined), inactive: -7.78%; under `CCOC(=O)c1ccc(NC(=O)C(C)(CCl)SC)cc1` (centres undefined), inactive: 4.97%.
In the case of `Cc1cc(SC(NC(=O)c2ccccc2)C(Cl)(Cl)Cl)nc(C(C)C)n1` (centres undefined), the activation was inactive: -5.33%.
As to `CCOC(=O)Nc1ccc([As](=O)(O)O)c(O)c1`, the activation is inactive: -13.2%.
To `Cc1cc(SC(NC=O)C(Cl)(Cl)Cl)ncn1` (centres undefined) belongs inactive: 5.21%; to `O=P(Nc1ccccn1)(c1cccc2ccccc12)c1cccc2ccccc12`, inactive: 13.1%; to `O=[N+]([O-])c1ccc(Nc2ccc(Oc3ccc([N+](=O)[O-])cc3[N+](=O)[O-])cc2)c([N+](=O)[O-])c1`, inactive: 19.6%.
Under `CCOC(=O)Nc1cccc([As](=O)(O)O)c1` stands inactive: 8.86%; under `Cc1ccc(OP(=O)(Nc2ccc([N+](=O)[O-])cn2)Oc2ccc(C)cc2)cc1`, inactive: -7.41%.
Under `Cc1ccc2nc3c(c(C)c2c1)CC(C(Cl)Cl)S3` (centres undefined) stands inactive: -8.01%; under `O=[As](O)(c1ccc(O)cc1)c1ccccc1O`, inactive: -1.02%; under `C[As](=O)(O)c1cccc(C(=O)O)c1`, inactive: 3.88%.
In the case of `O=[N+]([O-])c1cc([N+](=O)[O-])c(-c2ccn[nH]2)s1`, the activation was inactive: 4.91%.
To `CC(C)NC(=O)NP(=O)(Oc1ccccc1)Oc1ccccc1` belongs inactive: -2.31%; to `CCN(CC)C(=S)SC(NC=O)C(Cl)(Cl)Cl` (centres undefined), inactive: 6.62%.
Under `ClCCSc1nnc(-c2cccnc2)o1` stands inactive: -5.69%; under `CC(C)c1ccc(OP(=O)(Nc2ccccn2)Oc2ccccc2F)cc1` (centres undefined), inactive: -4.03%; under `COc1cc(I)ccc1[As](=O)(O)O`, inactive: 7.03%.
Regarding `COc1ccc2nc(NP(=O)(c3ccccc3)c3ccccc3)sc2c1`, the activation was inactive: -6.26%.
Under `Cc1c2c(nc3ccccc13)SC(C(Cl)Cl)C2` (centres undefined) stands inactive: -2.55%; under `Cc1cc(=O)[nH]c(N[N+](=O)[O-])n1`, inactive: 3.63%.
To `O=C(OC1CN2CCC1CC2)C12CC3CC(CC(C3)C1)C2` (centres undefined) belongs inactive: -9.6%.
Regarding `COc1ccc(N/C(=N/P(=O)(N2CCOCC2)N2CCOCC2)N2CCOCC2)cc1`, the activation was inactive: -6.09%.
Under `CN1CCCC(OC(=O)C(c2ccccc2)c2ccccc2)C1` (centres undefined) stands inactive: 12.7%; under `Clc1ccc(Cl)c(NC2=NCC(CBr)S2)c1` (centres undefined), inactive: 9.42%; under `Cc1ccc(OP(=O)(Nc2nccs2)Oc2ccc(C)cc2)cc1`, inactive: -10.8%.
To `COc1ccccc1OP(=O)(Nc1ccc(C)cn1)Oc1ccccc1OC` belongs inactive: -6.9%.
For the molecule `Cc1ccc(N/C(=N/P(=O)(N2CCOCC2)N2CCOCC2)N2CCOCC2)cc1`, the activation is inactive: -2.07%.
To `NC(=O)c1cc([N+](=O)[O-])cc([N+](=O)[O-])c1N` belongs inactive: -3.5%; to `O=C(NC(Sc1ccncn1)C(Cl)(Cl)Cl)c1ccccc1` (centres undefined), inactive: 0.3%.
On to `Cc1c2non([O-])c-2c(C)[n+](=O)[n+]1[O-]`, for which the activation is inactive: 4.66%.
To `Oc1ccccc1CNc1ccccn1` belongs inactive: 11.3%; to `Nc1cc(N)c2nonc2c1[N+](=O)[O-]`, inactive: -10.4%; to `CC(C)CC(=O)NC(Sc1ccc(Cl)cc1)C(Cl)(Cl)Cl` (centres undefined), inactive: -13.3%.
Under `Cc1ccc(NP(=O)(Oc2ccccc2F)Oc2ccccc2F)nc1` stands inactive: 9.44%.
To `Cc1cc(SC(NC(=O)c2ccc(F)cc2)C(Cl)(Cl)Cl)ncn1` (centres undefined) belongs inactive: 2.7%; to `CCOP(=O)(Nc1ccccc1)OCC`, inactive: -6.77% and inactive: 19.8%.
Take `O=P(Nc1nc2ccc(Cl)cc2s1)(c1ccccc1)c1ccccc1`: the activation is inactive: 5.18%.
Under `CC(=O)Nc1ccc([As](=O)(O)O)cc1` stands inactive: -1.78%; under `O=C(O)c1ccccc1[As](=O)(O)O`, inactive: 12.4%; under `Nc1cccc2ccc([As](=O)(O)O)cc12`, inactive: 3.6%.
`CCN(N=Nc1nonc1N)c1nonc1N`: the activation is inactive: 3.01%.
Under `O=C(Nc1cc([As](=O)(O)O)ccc1O)c1ccccc1` stands inactive: -10.6%; under `O=C(O)CNc1ccc([As](=O)(O)O)cc1`, inactive: -16.6%.
Under `O=[N+]([O-])c1cccc(NC2=NCC(CBr)S2)c1` (centres undefined) stands inactive: 0.35%; under `O=[N+]([O-])c1ncn(CCn2ncnc2[N+](=O)[O-])n1`, inactive: 0.7%.
Under `CC(C)(C)C(=O)NC(Sc1ccncn1)C(Cl)(Cl)Cl` (centres undefined) stands inactive: -1.38%.
On to `O=[N+]([O-])c1cc([N+](=O)[O-])c(CCNc2ccccc2)c([N+](=O)[O-])c1`, for which the activation is inactive: 7.05%.
To `CCc1nc2c(n1)c1c(non1O)c1c2no[n+]1[O-]` belongs inactive: -28.4%.
To `Cc1ccc(NP(=O)(Oc2ccccc2)Oc2ccccc2)nc1` belongs inactive: -5.93%.
As to `CC(=O)N1C2C3N(C(C)=O)C1C1N(C(C)=O)C(C(N1C(C)=O)N3C(C)=O)N2C(C)=O`, the activation was inactive: -17.7%.
To `O=[N+]([O-])c1cccc2n[nH]nc12` belongs inactive: -0.2%; to `COc1ccc(C2=NCC(CBr)S2)cc1` (centres undefined), inactive: 3.73%.
To `CC1CCN(C(=O)Oc2c(Cl)cc(Cl)c3cccnc23)CC1` belongs inactive: -1.6%; to `CN(C)C(=O)OCCc1n(C)cc[n+]1C`, inactive: 5.92%.
To `CC(C)=N/N=C(\N)N[N+](=O)[O-]` belongs inactive: -2.18%; to `CCN(/C(=N/P(=O)(N1CCOCC1)N1CCOCC1)N1CCOCC1)c1ccc(OC)cc1`, inactive: 7.73%; to `C[N+]1=C2C=CC=CC=C2SC12C([N+](=O)[O-])=CC([N+](=O)[O-])=C[C-]2[N+](=O)[O-]` (centres undefined), inactive: 3.01%.
`Nc1ccc([As](=O)(O)c2ccc(N)cc2)cc1`: the activation is inactive: -13.3%.
Under `c1nnnn1CCn1cnnn1` stands inactive: 5.65%; under `O=P(Nc1nccs1)(c1ccccc1)c1ccccc1`, inactive: -14.2%.
In the case of `CC(C)C(=O)NC(Sc1ccccc1)C(Cl)(Cl)Cl` (centres undefined), the activation is inactive: 13.2%.
To `O=P(Nc1nc2ccccc2s1)(c1ccccc1)c1ccccc1` belongs inactive: -7.62%; to `O=P(Nc1ccccn1)(c1ccc(Br)cc1)c1ccc(Br)cc1`, inactive: -5.62%; to `O=C(OC1CN2CCC1CC2)c1cccc(Cl)c1` (centres undefined), inactive: 3.96%.
Under `C(Cc1nn[nH]n1)Cc1nn[nH]n1` stands inactive: -1.06%; under `Nc1ccc([As](=O)(O)c2ccc([N+](=O)[O-])cc2)cc1`, inactive: -7.06%.
